Data taken from patent publication US5140102A, “Pentadecapeptide, guanylin, which stimulates intestinal guanylate cyclase” (Monsanto Company, priority 1991, dated 1992).

Sequences of proteins named here, by UniProt entry; tags and fusion partners are left off. Residues count along the entry.
UniProt P25092, 24-1073 limits assumed: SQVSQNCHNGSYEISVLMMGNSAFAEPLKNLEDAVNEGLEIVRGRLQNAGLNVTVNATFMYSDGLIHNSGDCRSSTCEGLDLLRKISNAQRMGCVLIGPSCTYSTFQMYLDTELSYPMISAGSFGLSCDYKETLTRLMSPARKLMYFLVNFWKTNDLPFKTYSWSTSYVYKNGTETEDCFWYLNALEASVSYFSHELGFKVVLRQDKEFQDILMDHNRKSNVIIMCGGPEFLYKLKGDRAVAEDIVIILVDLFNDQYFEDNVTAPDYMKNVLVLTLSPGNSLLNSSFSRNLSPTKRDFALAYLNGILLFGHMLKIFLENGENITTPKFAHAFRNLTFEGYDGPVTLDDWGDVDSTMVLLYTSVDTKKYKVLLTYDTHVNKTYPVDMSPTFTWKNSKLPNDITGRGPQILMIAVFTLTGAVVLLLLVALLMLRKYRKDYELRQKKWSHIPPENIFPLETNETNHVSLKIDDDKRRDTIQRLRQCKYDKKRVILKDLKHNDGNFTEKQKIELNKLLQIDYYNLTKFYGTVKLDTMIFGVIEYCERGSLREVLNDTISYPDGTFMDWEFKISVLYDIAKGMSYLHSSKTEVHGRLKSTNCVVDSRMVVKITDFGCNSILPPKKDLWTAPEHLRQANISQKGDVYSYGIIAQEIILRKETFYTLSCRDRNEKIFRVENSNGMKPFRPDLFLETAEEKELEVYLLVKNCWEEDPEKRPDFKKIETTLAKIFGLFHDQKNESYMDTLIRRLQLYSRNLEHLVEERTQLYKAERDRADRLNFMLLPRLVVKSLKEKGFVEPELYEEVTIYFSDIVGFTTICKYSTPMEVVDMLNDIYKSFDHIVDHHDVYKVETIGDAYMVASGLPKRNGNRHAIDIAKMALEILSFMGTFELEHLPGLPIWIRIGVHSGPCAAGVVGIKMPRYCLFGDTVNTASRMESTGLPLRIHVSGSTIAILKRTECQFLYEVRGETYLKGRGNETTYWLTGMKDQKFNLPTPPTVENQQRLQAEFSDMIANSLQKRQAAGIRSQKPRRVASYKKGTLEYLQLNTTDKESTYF

Target: intestinal guanylate cyclase (Homo sapiens, UniProt P25092)
Assay: Cyclic GMP determination in T84 cells (bioassay)
Type: cell-based
Details: 10^-3 M

**Q.** Which “effect on cyclic GMP levels” value does the source give for sodium nitroprusside here?
**A.** not detected

Only a part of the results on these compounds is given; other tests are left out.
